From US20250179032A1, “HETEROCYCLIC INHIBITORS OF GLUT9 FOR TREATMENT OF DISEASE” (HORIZON THERAPEUTICS IRELAND DAC, priority 2022, published 2025) come the findings set out here.

Protein sequences, listed by entry. Tags and fused reporters are not part of them. Residues count along the entry.
UniProt Q9NRM0, 1-511 isoform 2: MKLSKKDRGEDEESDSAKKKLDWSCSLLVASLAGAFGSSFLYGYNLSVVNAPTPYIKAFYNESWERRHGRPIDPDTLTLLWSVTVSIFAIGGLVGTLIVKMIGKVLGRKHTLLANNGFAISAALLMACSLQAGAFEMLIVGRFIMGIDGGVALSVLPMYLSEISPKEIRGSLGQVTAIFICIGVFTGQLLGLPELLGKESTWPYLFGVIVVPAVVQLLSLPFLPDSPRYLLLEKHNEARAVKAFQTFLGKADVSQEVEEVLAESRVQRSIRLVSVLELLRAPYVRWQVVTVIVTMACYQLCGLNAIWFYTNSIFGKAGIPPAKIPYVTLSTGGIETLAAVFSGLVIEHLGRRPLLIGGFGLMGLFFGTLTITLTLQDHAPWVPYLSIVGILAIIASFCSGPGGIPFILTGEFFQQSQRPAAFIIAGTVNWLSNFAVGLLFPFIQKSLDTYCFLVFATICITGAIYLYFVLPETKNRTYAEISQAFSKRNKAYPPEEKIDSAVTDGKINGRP

Where two headings read alike, the source gives them in different places.

One may read the IC50 as the concentration that gives 50% inhibition.

The assay addresses H. sapiens SLC2A9 variant 2 (GLUT9B) (Homo sapiens, UniProt Q9NRM0). Kind of assay: GLUT9 functional assay: uric acid uptake in HEK293T cells, allantoin formation by MS/MS as proxy of GLUT9B inhibition. The note with it: HEK293T cells stably expressing GLUT9B and transiently A. oryzae uricase, uric acid 0.3 mM, 37° C. The protocol: Uric acid stocks (9 mM, Millipore-Sigma, U0881) were generated in 125 mM choline chloride (Millipore-Sigma, C7017) and the concentration was determined at 293 nm using a molar extinction coefficient of 9600 M- ^1 cm- ^1) after collecting the absorbance spectra from 220-350 nm. Allantoin stocks (12 mM Toronto Research Chemicals, A540500) were generated in LCMS grade water (Thermo Scientific, 51140). The concentration of allantoin was determined by qNMR (Michigan State University). HEK293T cells were purchased from ATCC (HEK 293T/17 SF). Hanks buffered saline salts (HBSS) was purchased from Millipore-Sigma (H6648-1L). […]
Uric acid uptake was measured in HEK293T cells stably expressing H. sapiens SLC2A9 variant 2 (GLUT9B) and transiently expressing A. oryzae uricase. […] Allantoin was detected in positive ion mode. Desired analyte concentrations were quantitated by integrating the area under the curve followed by a log-logistic regression model and data compared to a standard curve prepared in a matching HEK293T biological matrix.
Mass spectrometry measurement of allantoin was completed using an Agilent RapidFire 300 coupled to a Sciex API 4000 mass spectrometer. […] Allantoin was detected in positive ion mode with the following compound ID settings: Q1 159, Q3 115.8, DP 57, CE 12.5 Dwell 100 ms. […]

For the molecule `CCCCCc1cnc(-c2ccc(OCCOC)cc2)c(N2CCC(C(=O)O)CC2)n1`, the IC50 (read-out: 15 min IC50, 15 minute assay) is below 500 nM.
As to `COCCCc1cnc(-c2cc(C)c3nc(C)cn3n2)c(N2CCC(C(=O)O)CC2)n1`, the IC50 (read-out: 60 min IC50, 60 minute assay) is above 2000 nM.
